Our source for the IC50 values is ChEMBL document CHEMBL1157489, “Identification of novel non-peptide CXCR4 antagonists by ligand-based design approach” (Bioorg Med Chem Lett, 2008).

Protein sequences, listed by entry. Tags and fused reporters are not part of them.
UniProt P61073, whole entry: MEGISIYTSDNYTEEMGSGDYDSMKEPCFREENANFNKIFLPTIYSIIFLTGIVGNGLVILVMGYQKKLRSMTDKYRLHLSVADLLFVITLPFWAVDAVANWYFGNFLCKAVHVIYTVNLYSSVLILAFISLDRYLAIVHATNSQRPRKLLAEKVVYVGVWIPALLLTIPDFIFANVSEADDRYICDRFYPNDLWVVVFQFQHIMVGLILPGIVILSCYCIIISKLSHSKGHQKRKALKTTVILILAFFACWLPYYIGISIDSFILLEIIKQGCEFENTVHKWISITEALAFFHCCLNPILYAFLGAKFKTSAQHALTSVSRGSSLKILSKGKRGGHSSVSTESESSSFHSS

pIC50: −log10 of the molar value.

The assay has as its target C-X-C chemokine receptor type 4 (Homo sapiens, UniProt P61073). Description: Displacement of [125I]SDF1 from human CXCR4 expressed in CHO cells. It is filed as cell-based. (In general: In a radioligand displacement assay an active substance lowers the binding of a labelled ligand.)

A word on the pIC50: it is −log10 of the IC50, conventionally taken in molar units. Higher therefore signals a low IC50. For the molecule `N=C(N)NCCC[C@@H]1NC(=O)[C@H](CCCNC(=N)N)NC(=O)[C@@H](Cc2ccc(O)cc2)NC(=O)CNC(=O)[C@H](Cc2ccc3ccccc3c2)NC1=O`, the pIC50 was 7.46.
